# Experimental data from paper PMC12362585, “Development and Preclinical Characterization of [^18F]H3-2406 and [^18F]H3-2407 for Positron Emission Tomography Imaging of the Histamine Subtype‑3 Receptor” (Journal of Medicinal Chemistry, 2025).
# Chains of the proteins cited; added tags and fusions are not shown.
# UniProt Q99720, whole entry, species assumed: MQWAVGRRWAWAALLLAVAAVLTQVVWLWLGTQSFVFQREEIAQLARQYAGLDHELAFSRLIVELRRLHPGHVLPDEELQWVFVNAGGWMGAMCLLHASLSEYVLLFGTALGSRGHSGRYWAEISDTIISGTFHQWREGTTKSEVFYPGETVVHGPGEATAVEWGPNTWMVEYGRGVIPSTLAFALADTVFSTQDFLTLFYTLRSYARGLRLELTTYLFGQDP
# Target: sigma-1 receptor (Homo sapiens, UniProt Q99720)
# Experiment: sigma 1 binding assay
# Conditions: ratio of sigma-1 K i to H3R K i
smiles,measurement,value
"O=C([C@H]1C[C@@H]1c1ccc(F)cc1)N1CCN(C2CCC2)CC1 [Compound 2, (4-Cyclobutylpiperazin-1-yl)((1S,2S)-2-(4-fluorophenyl)cyclopropyl)methanone]",selectivity of H3R over sigma-1,0.65 fold
